These are literature values, as cited in patent US9782454B2 (LONGEVITY BIOTECH, INC., priority 2010, dated 2017).

The target in this series is T1, CRF1 (Homo sapiens, UniProt P34998).
T1 sequence (P34998 24-415): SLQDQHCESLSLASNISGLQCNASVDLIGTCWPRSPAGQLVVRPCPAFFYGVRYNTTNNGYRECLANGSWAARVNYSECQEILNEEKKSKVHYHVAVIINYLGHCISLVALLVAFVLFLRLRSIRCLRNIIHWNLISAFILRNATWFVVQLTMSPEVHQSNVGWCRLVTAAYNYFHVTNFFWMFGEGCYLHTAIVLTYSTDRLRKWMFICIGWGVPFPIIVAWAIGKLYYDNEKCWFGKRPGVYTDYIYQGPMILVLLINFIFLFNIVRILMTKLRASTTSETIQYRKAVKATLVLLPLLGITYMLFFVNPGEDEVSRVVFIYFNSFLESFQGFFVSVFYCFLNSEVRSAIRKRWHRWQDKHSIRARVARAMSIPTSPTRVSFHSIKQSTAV
Particulars: cited from earlier work.

Consider Astressin, for which the Ki – broadly, the equilibrium dissociation constant of an inhibitor or competing ligand from its target – is 2 nM.
